# Source: ChEMBL document CHEMBL1147168, “Quinuclidines as selective agonists for alpha-7 nicotinic acetylcholine receptors” (Bioorg Med Chem Lett, 2007)
# Protein sequences, listed by entry. Tags and fused reporters are not part of them.
# UniProt P36544, whole entry: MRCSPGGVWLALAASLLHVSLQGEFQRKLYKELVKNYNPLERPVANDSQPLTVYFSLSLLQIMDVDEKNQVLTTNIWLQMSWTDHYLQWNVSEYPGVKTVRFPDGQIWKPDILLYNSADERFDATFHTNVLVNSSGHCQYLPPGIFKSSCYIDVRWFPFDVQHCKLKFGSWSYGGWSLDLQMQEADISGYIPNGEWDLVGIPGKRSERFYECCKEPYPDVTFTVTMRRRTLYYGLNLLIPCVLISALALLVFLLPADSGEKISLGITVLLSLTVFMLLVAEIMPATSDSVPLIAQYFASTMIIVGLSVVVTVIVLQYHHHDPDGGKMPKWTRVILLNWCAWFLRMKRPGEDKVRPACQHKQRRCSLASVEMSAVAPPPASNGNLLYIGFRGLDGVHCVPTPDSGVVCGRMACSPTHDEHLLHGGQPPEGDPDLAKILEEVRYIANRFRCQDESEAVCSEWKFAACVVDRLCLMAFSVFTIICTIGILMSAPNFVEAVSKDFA
# Molecular target: Neuronal acetylcholine receptor subunit alpha-7 (Homo sapiens, UniProt P36544)
# Assay: Agonist activity at nAChR alpha-7 expressed in Xenopus oocytes
# Assay type: functional, cell-based, Oocyte
smiles,measurement,value
C[N+]12CCC(CC1)CC2,EC50,40 µM
